Measured values: ChEMBL document CHEMBL5058646 (2022)

Key:
[1] = biological target: T1, Zinc finger and BTB domain-containing protein 24 (Homo sapiens) (UniProt O43167); conditions: OCI-Ly1
T1 sequence (whole entry): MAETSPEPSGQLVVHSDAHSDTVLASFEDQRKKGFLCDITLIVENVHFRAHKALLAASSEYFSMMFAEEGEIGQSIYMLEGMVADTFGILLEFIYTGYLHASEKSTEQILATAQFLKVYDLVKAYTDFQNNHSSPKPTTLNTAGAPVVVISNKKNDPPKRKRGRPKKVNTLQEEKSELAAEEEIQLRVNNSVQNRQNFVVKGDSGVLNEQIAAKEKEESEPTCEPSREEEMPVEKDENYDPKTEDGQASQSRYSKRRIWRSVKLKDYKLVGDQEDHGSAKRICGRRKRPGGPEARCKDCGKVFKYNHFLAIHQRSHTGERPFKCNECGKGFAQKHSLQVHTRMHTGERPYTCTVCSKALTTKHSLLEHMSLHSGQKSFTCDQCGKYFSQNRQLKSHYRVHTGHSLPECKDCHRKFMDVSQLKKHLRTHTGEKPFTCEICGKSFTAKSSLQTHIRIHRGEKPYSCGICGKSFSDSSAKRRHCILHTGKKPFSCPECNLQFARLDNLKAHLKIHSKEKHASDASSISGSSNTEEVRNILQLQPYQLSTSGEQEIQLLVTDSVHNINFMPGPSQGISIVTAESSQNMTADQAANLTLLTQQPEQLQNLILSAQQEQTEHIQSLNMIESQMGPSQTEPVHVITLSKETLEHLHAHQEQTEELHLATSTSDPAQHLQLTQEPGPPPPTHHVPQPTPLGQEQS

[2] = biological target: T2, Zinc finger and BTB domain-containing protein 17 (Homo sapiens) (UniProt Q13105); conditions: SUD4
T2 sequence (whole entry): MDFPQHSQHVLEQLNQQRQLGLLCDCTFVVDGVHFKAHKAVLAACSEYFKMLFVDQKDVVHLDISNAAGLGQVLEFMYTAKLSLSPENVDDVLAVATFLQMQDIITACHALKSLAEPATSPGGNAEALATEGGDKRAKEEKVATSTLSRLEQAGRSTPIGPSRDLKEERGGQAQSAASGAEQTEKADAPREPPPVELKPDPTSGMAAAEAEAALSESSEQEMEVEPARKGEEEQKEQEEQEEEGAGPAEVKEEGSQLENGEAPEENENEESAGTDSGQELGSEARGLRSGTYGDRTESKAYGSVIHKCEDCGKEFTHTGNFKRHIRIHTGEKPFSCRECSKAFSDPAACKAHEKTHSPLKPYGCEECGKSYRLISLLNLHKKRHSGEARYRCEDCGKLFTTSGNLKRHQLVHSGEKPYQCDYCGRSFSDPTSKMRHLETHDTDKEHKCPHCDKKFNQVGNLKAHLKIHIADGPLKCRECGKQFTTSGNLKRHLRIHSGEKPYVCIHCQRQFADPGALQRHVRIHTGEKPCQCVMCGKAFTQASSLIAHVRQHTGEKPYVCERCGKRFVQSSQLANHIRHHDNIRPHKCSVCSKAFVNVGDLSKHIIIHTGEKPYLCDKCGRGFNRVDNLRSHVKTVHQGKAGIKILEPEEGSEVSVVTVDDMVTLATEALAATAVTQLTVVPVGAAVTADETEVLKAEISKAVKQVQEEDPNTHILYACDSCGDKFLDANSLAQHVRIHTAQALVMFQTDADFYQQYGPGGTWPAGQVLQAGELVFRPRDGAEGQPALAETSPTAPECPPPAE

[3] = biological target: T3, Zinc finger and BTB domain-containing protein 1 (Homo sapiens) (UniProt Q9Y2K1); conditions: OCI-Ly1
T3 sequence (whole entry): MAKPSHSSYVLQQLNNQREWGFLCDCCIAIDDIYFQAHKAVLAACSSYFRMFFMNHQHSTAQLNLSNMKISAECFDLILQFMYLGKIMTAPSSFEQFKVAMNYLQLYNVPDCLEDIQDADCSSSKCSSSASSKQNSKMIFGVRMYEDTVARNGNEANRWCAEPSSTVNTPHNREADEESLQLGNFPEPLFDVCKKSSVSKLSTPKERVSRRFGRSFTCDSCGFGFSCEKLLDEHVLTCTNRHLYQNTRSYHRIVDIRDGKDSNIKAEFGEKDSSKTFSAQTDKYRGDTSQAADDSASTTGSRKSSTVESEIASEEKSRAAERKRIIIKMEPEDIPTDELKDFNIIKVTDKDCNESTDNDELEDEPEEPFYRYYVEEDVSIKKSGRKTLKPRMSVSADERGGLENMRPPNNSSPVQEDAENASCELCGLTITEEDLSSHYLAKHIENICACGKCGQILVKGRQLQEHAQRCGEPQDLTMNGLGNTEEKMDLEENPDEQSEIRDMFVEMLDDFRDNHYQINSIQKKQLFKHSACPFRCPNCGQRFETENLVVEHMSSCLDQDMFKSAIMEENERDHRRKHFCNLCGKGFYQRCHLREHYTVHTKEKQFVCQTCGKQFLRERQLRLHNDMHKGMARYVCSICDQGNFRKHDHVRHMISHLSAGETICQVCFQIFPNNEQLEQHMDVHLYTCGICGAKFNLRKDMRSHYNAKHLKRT

[4] = biological target: T4, Transcriptional regulator Kaiso (Homo sapiens) (UniProt Q86T24); conditions: OCI-Ly1
T4 sequence (whole entry): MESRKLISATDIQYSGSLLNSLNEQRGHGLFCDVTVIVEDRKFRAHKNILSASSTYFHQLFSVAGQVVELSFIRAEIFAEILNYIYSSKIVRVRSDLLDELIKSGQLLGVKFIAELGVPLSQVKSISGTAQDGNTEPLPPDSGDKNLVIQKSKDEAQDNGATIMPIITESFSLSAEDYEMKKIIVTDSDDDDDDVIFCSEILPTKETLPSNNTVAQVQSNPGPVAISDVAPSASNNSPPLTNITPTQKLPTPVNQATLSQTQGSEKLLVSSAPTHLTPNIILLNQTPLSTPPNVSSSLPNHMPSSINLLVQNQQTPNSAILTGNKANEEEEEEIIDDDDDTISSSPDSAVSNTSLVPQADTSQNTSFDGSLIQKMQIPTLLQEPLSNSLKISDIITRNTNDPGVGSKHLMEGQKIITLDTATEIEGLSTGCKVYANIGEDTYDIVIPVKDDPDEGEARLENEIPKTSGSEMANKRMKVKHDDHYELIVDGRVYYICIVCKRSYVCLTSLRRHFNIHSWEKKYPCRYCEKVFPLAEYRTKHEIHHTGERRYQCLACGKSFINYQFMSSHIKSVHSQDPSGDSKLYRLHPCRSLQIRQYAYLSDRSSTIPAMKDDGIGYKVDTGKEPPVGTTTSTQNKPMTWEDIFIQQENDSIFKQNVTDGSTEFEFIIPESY

[5] = biological target: T3, Zinc finger and BTB domain-containing protein 1 (Homo sapiens); conditions: SUD4

C[C@@H]1CN(c2ncc(Cl)c(Nc3ccc4c(c3)n(CCC(C)(C)O)c(=O)n4C)n2)C[C@H](C)C1(F)F
Normalized abundances for DMSO [1]: 39.1 | Normalized abundances for compound [1]: 36.2 | Normalized abundances for DMSO [2]: 273 | Normalized abundances for compound [2]: 264 | Normalized abundances for DMSO [3]: 116 | Normalized abundances for compound [3]: 111 | Normalized abundances for DMSO [4]: 142 | Normalized abundances for compound [4]: 133 | Normalized abundances for DMSO [5]: 3560 | Normalized abundances for compound [5]: 3620
